We go through 2 compounds from US12678425B2, “Methods for treating against viruses” (Howard University, priority 2019, dated 2026).

This experiment deals with HSV-1 ICP0 mRNA. In words: Real-time RT-PCR of HSV-1 ICP0 transcript in Hep-2 cells. The following applies: 12 and 24 hpi.

Consider `COc1ccc(-c2nnc(SCC(=O)O)n2N)cc1` [SD-29-12], for which the “level of ICP0 mRNA versus DMSO” value was “essentially showed the same level of ICP0 mRNA”.
As to `Nn1c(S)nnc1-c1ccc(F)cc1` [SD-29], the “level of ICP0 mRNA versus DMSO” value is “essentially showed the same level of ICP0 mRNA”.
